Entries after “also recorded” stand apart in the source; their conditions may differ.
Assays:
Type in all cases: cell-based, human
U-87 spheroids = assay: 3D culture (cancer spheroids), U-87
PPC-1 spheroids = assay: 3D culture (cancer spheroids), PPC-1
MDA-MB-231 spheroids = assay: 3D culture (cancer spheroids), MDA-MB-231

NS(=O)(=O)c1ccc(O)c(N=Cc2ccc([N+](=O)[O-])s2)c1 [Compound 9, 4-Hydroxy-3-(((5-nitrothiophen-2-yl)methylene)amino)benzenesulfonamide]
spheroid growth / size, U-87 (U-87 spheroids): became more diffuse | viability of cells in spheroids, U-87 (U-87 spheroids): reduced the viability; also recorded: strongest effect on cell viability reduction | spheroid growth / size, PPC-1 (PPC-1 spheroids): became more diffuse | viability of cells in spheroids, PPC-1 (PPC-1 spheroids): reduced the viability; also recorded: strongest effect on cell viability reduction | spheroid growth / size, MDA-MB-231 (MDA-MB-231 spheroids): became smaller compared to the control | viability of cells in spheroids, MDA-MB-231 (MDA-MB-231 spheroids): reduced the viability; also recorded: strongest effect on cell viability reduction
